According to PMC8881069, “Thio- and selenosemicarbazones as antiprotozoal agents against Trypanosoma cruzi and Trichomonas vaginalis” (Journal of Enzyme Inhibition and Medicinal Chemistry, 2022):

Test system: hydrogenosome membrane potential of T. vaginalis
Experiment: Hydrogenosomal membrane potential assay (JC-1)
Conditions: 4 h; 51 and 63 at 100 µM, MTZ 24 µM, CCCP 50 µM

N#CC(C#N)=NNc1cccc(Cl)c1 [CCCP, m-chlorocarbonylcyanide phenylhydrazone]
alteration of hydrogenosome membrane potential (fluorescence units at 535 nm after JC-1): showed a significant difference
